Measurements published in patent US20250092067A1, “APT1 and APT2 Inhibitors and Uses Thereof” (Cornell University, priority 2021, published 2025).

Sequences of proteins named here, by UniProt entry; tags and fusion partners are left off.
UniProt O75608, whole entry: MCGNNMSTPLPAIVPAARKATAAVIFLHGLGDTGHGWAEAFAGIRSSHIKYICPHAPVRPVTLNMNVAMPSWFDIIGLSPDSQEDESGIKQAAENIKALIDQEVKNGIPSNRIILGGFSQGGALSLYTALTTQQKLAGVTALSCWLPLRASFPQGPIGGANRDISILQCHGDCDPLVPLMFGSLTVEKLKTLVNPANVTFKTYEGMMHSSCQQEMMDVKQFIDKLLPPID
UniProt O95372, whole entry: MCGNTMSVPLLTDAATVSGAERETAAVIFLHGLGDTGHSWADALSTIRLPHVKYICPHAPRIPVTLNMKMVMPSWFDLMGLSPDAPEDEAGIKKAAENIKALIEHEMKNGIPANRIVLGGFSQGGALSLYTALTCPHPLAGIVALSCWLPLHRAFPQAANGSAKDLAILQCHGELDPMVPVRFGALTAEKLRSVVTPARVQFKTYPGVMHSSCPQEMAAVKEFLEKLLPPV

How the values were obtained:
[1] = molecular target: APT1 (Homo sapiens, UniProt O75608); assay: APT1 enzymatic assay, resorufin acetate as fluorogenic substrate; type: biochemical; settings: read-out: IC50 (μM) APT1
[2] = molecular target: APT2 (Homo sapiens, UniProt O95372); assay: APT2 enzymatic assay, resorufin acetate as fluorogenic substrate; type: biochemical
[3] = system: SMAD2 palmitoylation; assay: SMAD2 palmitoylation in HEK 293T cells (Alk14 labeling, in-gel fluorescence); type: cell-based; settings: inhibitors at 25 μM, 6 h
[4] = system: STAT3 palmitoylation; assay: STAT3 palmitoylation in HEK 293T cells transfected with STAT3, APT2 and DHHC7; type: cell-based; settings: inhibitors at 25 μM for 16 hours
[5] = system: HEK 293T cells; assay: Cell viability of HEK 293T cells; settings: at 50 mM (so in the source)
[6] = Table 1, resorufin acetate as the substrate
[7] = read-out: IC50 (μM) APT2, Table 2, class symbols

`CCOP(=O)(F)CCc1ccc(C(=O)N2CCN(c3ccc(OC)cc3)CC2)cc1` (stereo not drawn) showed an IC50 [1, 6] greater than 200 µM and an IC50 [2, 7] of 1 to 40 µM.
`CCOP(=O)(F)c1cc2cc(C(=O)N3CCN(c4ccc(OC)cc4)CC3)sc2c2ccccc12` (stereo not drawn) was tested, and the IC50 [1, 6] was 1.06 µM, the IC50 ([1]; Table 2, class symbols) was 1 to 40 µM and the “time-dependent inhibition of APT2” value ([2]; pre-incubation 30 min versus standard) was “time-dependent inhibition”. The IC50 ([2]; read-out: IC50 (μM) APT2, Table 1, resorufin acetate as the substrate) was 1.42 µM, the IC50 [2, 7] was 1 to 40 µM and the IC50 ([2]; read-out: IC50 (μM) APT2 with 30 min preincubation, 30 min preincubation with APT2 before adding resorufin acetate) was 0.6 µM. The IC50 ([2]; read-out: IC50 (μM) APT2 with 30 min preincubation, Table 2, class symbols, 30 min preincubation) was 0.1 to 1 µM, the SMAD2 palmitoylation level [3] was “slightly better than ML349” and the “STAT3 palmitoylation level (acylation normalized by STAT3 protein)” value [4] was “slightly better than ML349”. For the same compound, the “effect on cell viability” value [5] was “no effect”.

Read-outs that look alike come from different tables or passages of the source.
